Test results published in patent US7912651B2, “Function homology screening” (BioSeek LLC, priority 2000, dated 2011).

What was measured:
HUVEC cells [1] = tested on: HUVEC cells
HUVEC cells [2] = assay: HUVEC in basal medium cultured with factor or agent for 24 hours, cell-based ELISA; parameters: species or system human; details: HUVEC cultured with the factor/agent for 24 hours, vs basal medium
Protocol: The experiments provided in FIG. 1A-1C illustrate the usefulness of the present invention in compound screening applications. […] After 24 hours, cultures are washed and evaluated for the presence of the parameters ICAM-1 (1), VCAM-1 (2), E-selectin (3), IL-8 (4), CD31 (5), HLA-DR (6) and MIG (7) by cell-based ELISA as described (Melrose, J. Immunol. 161:2457, 1998). For this, plates are blocked with 1% Blotto for 1 hr, and treated with primary antibodies (obtained from Pharmingen and Becton Dickinson) at 1 ng/ml for 2 hr. After washing, secondary peroxidase-conjugated anti-mouse IgG antibody (Promega) at 1:2500 is applied for 45 min. After washing, TMB substrate (Kierkegaard & Perry) is added and color developed. Development is stopped by addition of H2SO4 and the absorbance at 450 nm (subtracting the background absorbance at 600 nm) is read with a Molecular Dynamics plate reader. The relative expression levels of each parameter are indicated by the OD at 450 nm shown along the y-axis. The mean+/−SD from triplicate samples is shown. The assay combinations shown in FIG. 1 are useful in screening compounds that modulate TNF-α, IL-1 and IFN-γ signaling pathways, however, compounds must be evaluated separately in all three assay combinations to identify compounds that selectively modulate one or more of these pathways. In addition, compounds that selectively modulate combinatorial effects of these pathways cannot be distinguished.
An assay combination with improved usefulness is described in FIG. 1B. […] The mean+/−SD from triplicate samples are shown. * indicates p<0.05 comparing results obtained with the two separate conditions. […] HUVEC cultured with IFN-γ for 24 hours express increased levels of ICAM-1, HLA-DR and MIG. HUVEC cultured in the presence of both TNF-α and IFN-γ for 24 hours produce a combined phenotype where HUVEC express increased levels of ICAM-1, VCAM-1, E-selectin, HLA-DR and MIG. […]

In the case of “TNF-α: proinflammatory cytokine used as factor”, the “release of cytoplasmic lactate dehydrogenase into the supernatant (cell damage) vs basal conditions” value (HUVEC cells [1]) is reported as “enhanced”, the “level of E-selectin” value (HUVEC cells [2]) is reported as “increased” and the “level of ICAM-1” value (HUVEC cells [2]) is reported as “increased”. For the same substance, the “level of VCAM-1” value (HUVEC cells [2]) was “increased”.
